Target: KCNT1 (KNa1.1, Slack) (Homo sapiens, UniProt Q5JUK3)
Assay: KCNT1 patch clamp assay (SyncroPatch 384PE automated patch clamp)
Format: cell-based
Settings: read-out: KCNT1-WT IC50; tetracycline inducible HEK-TREX cell line; perforated patch; step from −80 mV to 0 mV; room temperature

Amino acid sequences for entries named in this document (tags omitted).
UniProt Q5JUK3, whole entry: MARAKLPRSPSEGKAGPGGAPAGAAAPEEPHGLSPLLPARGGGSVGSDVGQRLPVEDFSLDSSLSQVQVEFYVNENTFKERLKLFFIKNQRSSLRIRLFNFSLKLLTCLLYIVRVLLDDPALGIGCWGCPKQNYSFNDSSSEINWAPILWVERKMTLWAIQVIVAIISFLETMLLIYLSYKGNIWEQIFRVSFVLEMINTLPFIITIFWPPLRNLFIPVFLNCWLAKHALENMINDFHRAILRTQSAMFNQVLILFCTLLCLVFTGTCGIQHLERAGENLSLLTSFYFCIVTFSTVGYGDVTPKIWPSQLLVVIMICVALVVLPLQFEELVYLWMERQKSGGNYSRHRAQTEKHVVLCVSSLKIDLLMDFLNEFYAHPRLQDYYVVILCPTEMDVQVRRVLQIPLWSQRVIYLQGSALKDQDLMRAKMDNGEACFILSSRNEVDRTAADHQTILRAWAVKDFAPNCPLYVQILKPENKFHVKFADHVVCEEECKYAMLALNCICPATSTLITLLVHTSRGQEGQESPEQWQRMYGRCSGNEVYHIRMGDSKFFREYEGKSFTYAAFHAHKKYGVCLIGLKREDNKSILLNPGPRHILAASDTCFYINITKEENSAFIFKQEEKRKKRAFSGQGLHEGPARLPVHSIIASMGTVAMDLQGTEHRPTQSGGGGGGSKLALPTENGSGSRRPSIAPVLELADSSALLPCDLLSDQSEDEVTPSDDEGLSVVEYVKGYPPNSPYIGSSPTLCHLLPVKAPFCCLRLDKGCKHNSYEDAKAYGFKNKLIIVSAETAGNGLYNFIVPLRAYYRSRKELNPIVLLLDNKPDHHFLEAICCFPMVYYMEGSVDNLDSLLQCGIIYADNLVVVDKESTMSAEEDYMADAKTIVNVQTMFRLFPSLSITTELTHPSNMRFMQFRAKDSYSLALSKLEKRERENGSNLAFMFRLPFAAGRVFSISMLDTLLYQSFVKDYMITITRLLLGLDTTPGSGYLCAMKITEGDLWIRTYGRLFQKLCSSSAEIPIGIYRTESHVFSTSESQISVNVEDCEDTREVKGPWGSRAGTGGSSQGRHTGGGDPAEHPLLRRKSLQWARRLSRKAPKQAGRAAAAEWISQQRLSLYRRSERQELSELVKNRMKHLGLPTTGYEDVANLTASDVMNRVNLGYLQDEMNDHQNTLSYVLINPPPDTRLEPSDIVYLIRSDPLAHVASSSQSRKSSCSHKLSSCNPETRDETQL

Row | SMILES | IC50 [nM]
1 | Cc1nn(C(C)C)cc1C(=O)N[C@@H](C)c1nc(-c2cccc(C(F)F)c2)no1 | < 1000
2 | Cc1nn(C(F)F)cc1C(=O)N[C@@H](C)c1nc(-c2cccc(F)c2)no1 | < 1000
3 | CC(C)c1cc(C(=O)N[C@@H](C)c2nc(-c3cccc(C(F)(F)F)c3)no2)n(C)n1 (single isomer, unassigned) | 1000 to 20000
4 | CC(C)c1cc(C(=O)N[C@@H](C)c2nc(-c3cccc(F)c3)no2)n(C)n1 (single isomer, unassigned) | 1000 to 20000
5 | CC(C)c1cc(C(=O)N[C@H](C)c2nc(-c3cccc(C(F)(F)F)c3)no2)n(C)n1 (single isomer, unassigned) | < 1000
6 | CC(C)c1cc(C(=O)N[C@H](C)c2nc(-c3cccc(F)c3)no2)n(C)n1 (single isomer, unassigned) | < 1000
7 | CC(NC(=O)c1cc(C(F)(F)F)nn1C)c1nc(-c2ccc(Cl)cc2Cl)no1 (single isomer, unassigned) | < 1000
8 | C[C@@H](NC(=O)c1cc(C(F)(F)F)nn1C1CC1)c1nc(-c2cccc(Cl)c2)no1 (single isomer, unassigned) | 1000 to 20000
9 | C[C@@H](NC(=O)c1cc(C2CC2)nn1C)c1nc(-c2ccc(Cl)cc2)no1 (single isomer, unassigned) | 1000 to 20000
10 | C[C@@H](NC(=O)c1cc(C2CC2)nn1C)c1nc(-c2cccc(Cl)c2)no1 (single isomer, unassigned) | 1000 to 20000
11 | C[C@H](NC(=O)c1cc(C(F)(F)F)nn1C1CC1)c1nc(-c2cccc(Cl)c2)no1 (single isomer, unassigned) | < 1000
12 | C[C@H](NC(=O)c1cc(C2CC2)nn1C)c1nc(-c2ccc(Cl)cc2)no1 (single isomer, unassigned) | < 1000
13 | C[C@H](NC(=O)c1cc(C2CC2)nn1C)c1nc(-c2cccc(Cl)c2)no1 (single isomer, unassigned) | < 1000
14 | Cc1cccc(-c2noc(C(C)NC(=O)c3cc(C(F)(F)F)nn3CC(F)F)n2)c1 (single isomer, unassigned) | < 1000
15 | Cc1cccc(-c2noc([C@@H](C)NC(=O)c3cc(C(C)(C)C)nn3C)n2)c1 (single isomer, unassigned) | < 1000
16 | Cc1cccc(-c2noc([C@@H](C)NC(=O)c3cc(C(C)C)nn3C)n2)c1 (single isomer, unassigned) | < 1000
17 | Cc1cccc(-c2noc([C@@H](C)NC(=O)c3cc(C(F)(F)F)nn3C)n2)c1 (single isomer, unassigned) | < 1000

Row | SMILES | IC50 [nM]
18 | Cc1cccc(-c2noc([C@@H](C)NC(=O)c3cc(C(F)F)nn3C)n2)c1 (single isomer, unassigned) | < 1000
19 | Cc1cccc(-c2noc([C@@H](C)NC(=O)c3cc(C)nn3C(C)C)n2)c1 (single isomer, unassigned) | < 1000
20 | Cc1cccc(-c2noc([C@@H](C)NC(=O)c3cc(C)nn3C(F)F)n2)c1 (single isomer, unassigned) | 1000 to 20000
21 | Cc1cccc(-c2noc([C@@H](C)NC(=O)c3cc(C)nn3C)n2)c1 (single isomer, unassigned) | < 1000
22 | Cc1cccc(-c2noc([C@@H](C)NC(=O)c3nn(C(C)C)cc3C)n2)c1 (single isomer, unassigned) | 1000 to 20000
23 | Cc1cccc(-c2noc([C@H](C)NC(=O)c3cc(C(C)(C)C)nn3C)n2)c1 (single isomer, unassigned) | < 1000
24 | Cc1cccc(-c2noc([C@H](C)NC(=O)c3cc(C(C)C)nn3C)n2)c1 (single isomer, unassigned) | 1000 to 20000
25 | Cc1cccc(-c2noc([C@H](C)NC(=O)c3cc(C(F)(F)F)nn3C)n2)c1 (single isomer, unassigned) | 1000 to 20000
26 | Cc1cccc(-c2noc([C@H](C)NC(=O)c3cc(C(F)F)nn3C)n2)c1 (single isomer, unassigned) | 1000 to 20000
27 | Cc1cccc(-c2noc([C@H](C)NC(=O)c3cc(C)nn3C(C)C)n2)c1 (single isomer, unassigned) | 1000 to 20000
28 | Cc1cccc(-c2noc([C@H](C)NC(=O)c3cc(C)nn3C(F)F)n2)c1 (single isomer, unassigned) | < 1000
29 | Cc1cccc(-c2noc([C@H](C)NC(=O)c3cc(C)nn3C)n2)c1 (single isomer, unassigned) | 1000 to 20000
30 | Cc1cccc(-c2noc([C@H](C)NC(=O)c3nn(C(C)C)cc3C)n2)c1 (single isomer, unassigned) | 1000 to 20000
31 | Cn1nc(C(F)(F)F)cc1C(=O)NC(c1nc(-c2cccc(F)c2)no1)C1CCCO1 (single isomer, unassigned) [172] | 1000 to 20000
32 | Cn1nc(C(F)(F)F)cc1C(=O)NC(c1nc(-c2cccc(F)c2)no1)C1CCCO1 (single isomer, unassigned) [173] | 1000 to 20000
33 | Cn1nc(C(F)(F)F)cc1C(=O)NC(c1nc(-c2cccc(F)c2)no1)C1CCCO1 (single isomer, unassigned) [174] | < 1000
34 | Cn1nc(C(F)(F)F)cc1C(=O)NC(c1nc(-c2cccc(F)c2)no1)C1CCCO1 (single isomer, unassigned) [175] | < 1000
